In assay [1] the target is bovine serum albumin (BSA) (Bos taurus, UniProt P02769). In words: BSA conjugation, in-gel chymotrypsin digest and MS/MS analysis.
The nature of assay [2]: Thiol addition of glutathione monitored by UV LC-MS.
Where [3] appears, read: pH 8.5 & 50 eq. or pH 7.4 & 100 eq., estimated from signal intensity ratios.
The mark [4] stands for this setting: pH 8.5, 100 eq. PT, estimated from signal intensity ratios.

The values that follow come from patent US12453779B2, “Chemoselective thiol-conjugation with alkene or alkyne-phosphonothiolates and -phosphonates” (FORSCHUNGSVERBUND BERLIN E.V., priority 2018, dated 2025).

The structures appear in SMILES notation.

Regarding `C#CP(=O)(OC)SCc1ccccc1` (stereo not shown), the “modification of the single free cysteine (C58)” value in assay [1] (pH 7.4/8.0/8.5 & 100 eq.) is “BSA was clearly detected and found to be ca. 90%”. For the same compound, the “time to full conversion of the alkyne-phosphonothiolate with glutathione” value in assay [2] (buffer pH 8.5 / DMF, UV LC-MS) is reported as “ca. 1 min”.
As for `C=CP(=O)(OCC)SCc1ccccc1` (stereo not shown), the “degree of modification, C58-containing peptides” value in assay [1] (pH 8.5 & 50 eq. or pH 7.4 & 100 eq.) is “modification is high (>50%)”. In assay [1] (setting [3]), the “estimated degree of modification, H42” value was 2-5%; the “estimated degree of modification, H91” value is on record as 5-10%; the “estimated degree of modification, H169/Y171/R168” value is recorded as “H169/ Y171/R168 ca. 1-5%, H361/R360 ca”; the “estimated degree of modification, H361/R360” value is reported as 1-5%, all values are estimated from signal intensity. Further, the “degree of modification, C58-containing peptides” value in assay [1] (pH 8.5, 100 eq. PT, 18 h, 4 °C) is “The degree of modification is high (>50%)”. Besides, in assay [1] (setting [4]), the “estimated degree of modification, H42” value is “significantly lower for these peptides: (H42 ca. 5-10%,”; the “estimated degree of modification, H91/S89/T92” value is “H91/S89/T92 ca. 10-20%, H169/ R168 smaller”; the “estimated degree of modification, H169/R168” value is listed as less than 1%; the “estimated degree of modification, H361/R360” value is listed as 5-10%. Also, the “time to full conversion with glutathione” value in assay [2] (2.0 eq. glutathione, buffer pH 8.0 / DMF, r.t., UPLC-MS) is given as 90 min.
